Literature values as cited in PMC11241800.

Legend:
thrombin (Homo sapiens) = thrombin (Homo sapiens) (UniProt P00734)
MASP-2 (Homo sapiens) = MASP-2 (Homo sapiens) (UniProt O00187)
plasmin (Homo sapiens) = plasmin (Homo sapiens) (UniProt P00747)

## aprotinin (from UniProt P00974)
Thrombin (Homo sapiens)
  Ki: 61000 nM
MASP-2 (Homo sapiens)
  Ki: 150 nM
Plasmin (Homo sapiens)
  Ki: 0.09 nM
